Laboratory results reported in US8865894B2, “Oxazolidin-2-one compounds and uses thereof” (Novartis AG, priority 2012, dated 2014).

Protein sequences, listed by entry. Tags and fused reporters are not part of them.
UniProt P42338, whole entry: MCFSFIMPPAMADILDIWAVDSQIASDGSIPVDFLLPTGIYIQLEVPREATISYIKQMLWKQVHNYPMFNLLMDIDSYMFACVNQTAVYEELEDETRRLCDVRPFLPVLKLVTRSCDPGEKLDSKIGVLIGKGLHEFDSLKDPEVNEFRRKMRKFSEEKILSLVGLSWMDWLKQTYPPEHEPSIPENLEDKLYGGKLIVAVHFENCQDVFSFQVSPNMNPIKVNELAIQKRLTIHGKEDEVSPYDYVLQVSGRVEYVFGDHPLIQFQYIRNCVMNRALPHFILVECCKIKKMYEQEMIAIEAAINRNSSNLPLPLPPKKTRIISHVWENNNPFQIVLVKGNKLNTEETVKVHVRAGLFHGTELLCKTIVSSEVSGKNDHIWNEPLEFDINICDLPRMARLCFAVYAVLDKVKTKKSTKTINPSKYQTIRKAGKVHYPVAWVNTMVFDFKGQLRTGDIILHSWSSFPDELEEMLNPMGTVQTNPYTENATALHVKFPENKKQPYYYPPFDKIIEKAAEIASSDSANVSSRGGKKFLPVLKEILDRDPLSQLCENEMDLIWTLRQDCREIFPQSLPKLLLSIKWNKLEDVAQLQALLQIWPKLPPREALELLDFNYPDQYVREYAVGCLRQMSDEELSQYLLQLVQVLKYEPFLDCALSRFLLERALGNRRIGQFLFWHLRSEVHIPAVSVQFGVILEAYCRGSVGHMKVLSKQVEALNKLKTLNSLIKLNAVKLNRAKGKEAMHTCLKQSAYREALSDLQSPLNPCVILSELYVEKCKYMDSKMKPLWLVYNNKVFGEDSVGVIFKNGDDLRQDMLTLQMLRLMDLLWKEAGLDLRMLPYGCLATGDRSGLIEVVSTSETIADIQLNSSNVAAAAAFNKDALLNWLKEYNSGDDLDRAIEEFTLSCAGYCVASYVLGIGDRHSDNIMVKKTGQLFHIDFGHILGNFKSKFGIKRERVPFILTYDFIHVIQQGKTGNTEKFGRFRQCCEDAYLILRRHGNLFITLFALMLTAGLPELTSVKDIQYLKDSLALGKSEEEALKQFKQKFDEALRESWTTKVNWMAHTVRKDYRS
UniProt P42336, whole entry: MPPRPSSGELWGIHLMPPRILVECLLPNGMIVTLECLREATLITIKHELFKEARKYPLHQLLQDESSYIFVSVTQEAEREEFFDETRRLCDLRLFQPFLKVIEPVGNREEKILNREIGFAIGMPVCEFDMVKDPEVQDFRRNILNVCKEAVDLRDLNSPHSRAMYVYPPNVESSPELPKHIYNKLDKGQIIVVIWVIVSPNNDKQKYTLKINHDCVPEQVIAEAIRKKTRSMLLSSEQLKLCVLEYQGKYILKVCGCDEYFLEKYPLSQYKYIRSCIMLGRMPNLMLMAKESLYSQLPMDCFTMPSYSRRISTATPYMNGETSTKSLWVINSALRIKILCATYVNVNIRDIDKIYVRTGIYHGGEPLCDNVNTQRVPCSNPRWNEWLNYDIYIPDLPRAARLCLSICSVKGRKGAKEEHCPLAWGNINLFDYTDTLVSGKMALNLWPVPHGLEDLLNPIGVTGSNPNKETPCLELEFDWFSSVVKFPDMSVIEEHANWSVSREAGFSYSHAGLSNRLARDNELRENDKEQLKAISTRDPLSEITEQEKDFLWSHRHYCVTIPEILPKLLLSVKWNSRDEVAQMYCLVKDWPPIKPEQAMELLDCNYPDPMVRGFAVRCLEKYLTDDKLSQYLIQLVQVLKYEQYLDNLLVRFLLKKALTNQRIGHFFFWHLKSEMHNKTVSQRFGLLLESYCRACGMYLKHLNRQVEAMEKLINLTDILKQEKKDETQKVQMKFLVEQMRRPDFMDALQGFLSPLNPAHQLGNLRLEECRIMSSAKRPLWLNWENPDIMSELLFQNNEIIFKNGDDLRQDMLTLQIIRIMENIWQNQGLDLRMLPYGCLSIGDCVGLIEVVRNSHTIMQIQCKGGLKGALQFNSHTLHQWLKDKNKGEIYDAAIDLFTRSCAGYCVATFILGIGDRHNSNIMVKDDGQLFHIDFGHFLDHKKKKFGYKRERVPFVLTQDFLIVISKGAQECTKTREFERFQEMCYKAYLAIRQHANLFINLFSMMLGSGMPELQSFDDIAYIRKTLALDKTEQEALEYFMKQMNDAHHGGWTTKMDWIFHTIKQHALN
UniProt O00329, whole entry: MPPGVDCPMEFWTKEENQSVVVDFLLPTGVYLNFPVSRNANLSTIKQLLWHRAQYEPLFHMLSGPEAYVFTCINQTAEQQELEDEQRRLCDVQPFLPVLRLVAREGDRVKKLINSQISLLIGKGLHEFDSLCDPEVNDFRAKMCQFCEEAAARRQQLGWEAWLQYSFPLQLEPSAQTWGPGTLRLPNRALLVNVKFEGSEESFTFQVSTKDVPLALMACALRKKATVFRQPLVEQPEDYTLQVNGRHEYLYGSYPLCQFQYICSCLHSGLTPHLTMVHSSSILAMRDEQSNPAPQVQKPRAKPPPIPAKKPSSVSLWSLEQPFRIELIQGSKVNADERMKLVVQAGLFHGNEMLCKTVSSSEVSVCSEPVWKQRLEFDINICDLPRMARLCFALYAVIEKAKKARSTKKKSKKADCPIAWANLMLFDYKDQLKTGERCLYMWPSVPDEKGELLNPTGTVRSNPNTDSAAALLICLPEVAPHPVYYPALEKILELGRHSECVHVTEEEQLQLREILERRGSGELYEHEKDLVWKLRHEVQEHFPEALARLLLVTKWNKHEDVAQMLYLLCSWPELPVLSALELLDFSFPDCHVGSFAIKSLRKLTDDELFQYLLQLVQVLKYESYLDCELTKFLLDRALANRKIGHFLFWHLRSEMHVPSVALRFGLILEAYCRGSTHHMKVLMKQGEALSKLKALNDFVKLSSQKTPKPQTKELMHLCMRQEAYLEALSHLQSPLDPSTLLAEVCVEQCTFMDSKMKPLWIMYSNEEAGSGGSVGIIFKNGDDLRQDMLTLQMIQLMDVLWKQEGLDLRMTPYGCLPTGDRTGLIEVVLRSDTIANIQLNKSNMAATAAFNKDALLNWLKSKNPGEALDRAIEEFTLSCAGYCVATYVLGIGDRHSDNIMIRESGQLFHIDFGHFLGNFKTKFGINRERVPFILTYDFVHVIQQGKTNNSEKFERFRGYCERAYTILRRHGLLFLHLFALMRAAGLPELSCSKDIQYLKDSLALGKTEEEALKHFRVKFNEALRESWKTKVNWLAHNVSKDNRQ
UniProt P48736, whole entry: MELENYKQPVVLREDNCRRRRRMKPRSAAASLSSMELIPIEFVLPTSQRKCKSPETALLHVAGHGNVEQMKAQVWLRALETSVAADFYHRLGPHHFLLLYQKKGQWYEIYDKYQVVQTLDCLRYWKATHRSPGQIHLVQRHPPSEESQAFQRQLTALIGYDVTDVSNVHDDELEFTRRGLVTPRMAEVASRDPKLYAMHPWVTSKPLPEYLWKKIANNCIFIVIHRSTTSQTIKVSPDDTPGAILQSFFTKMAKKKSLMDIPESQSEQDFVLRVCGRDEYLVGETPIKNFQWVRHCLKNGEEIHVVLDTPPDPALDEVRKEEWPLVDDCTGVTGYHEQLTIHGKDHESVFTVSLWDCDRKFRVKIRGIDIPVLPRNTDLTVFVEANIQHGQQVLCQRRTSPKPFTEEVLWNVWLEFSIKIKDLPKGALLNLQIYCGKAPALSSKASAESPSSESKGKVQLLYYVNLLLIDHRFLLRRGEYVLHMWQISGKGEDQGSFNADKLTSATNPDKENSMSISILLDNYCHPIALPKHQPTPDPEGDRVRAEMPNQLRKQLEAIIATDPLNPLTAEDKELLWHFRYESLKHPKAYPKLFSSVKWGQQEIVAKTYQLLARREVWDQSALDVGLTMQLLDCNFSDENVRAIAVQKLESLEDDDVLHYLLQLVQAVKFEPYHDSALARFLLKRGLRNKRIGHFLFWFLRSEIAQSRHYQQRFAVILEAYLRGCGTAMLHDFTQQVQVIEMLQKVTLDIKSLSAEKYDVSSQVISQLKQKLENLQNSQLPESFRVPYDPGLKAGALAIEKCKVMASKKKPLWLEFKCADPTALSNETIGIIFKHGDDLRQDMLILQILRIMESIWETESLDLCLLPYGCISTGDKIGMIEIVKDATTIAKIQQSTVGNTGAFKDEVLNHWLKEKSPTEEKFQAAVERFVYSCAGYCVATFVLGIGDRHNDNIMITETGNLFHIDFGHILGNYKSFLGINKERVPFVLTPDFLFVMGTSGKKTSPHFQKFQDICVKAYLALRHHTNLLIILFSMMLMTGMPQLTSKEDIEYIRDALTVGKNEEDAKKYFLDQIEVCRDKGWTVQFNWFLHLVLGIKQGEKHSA
UniProt Q63787, whole entry partner: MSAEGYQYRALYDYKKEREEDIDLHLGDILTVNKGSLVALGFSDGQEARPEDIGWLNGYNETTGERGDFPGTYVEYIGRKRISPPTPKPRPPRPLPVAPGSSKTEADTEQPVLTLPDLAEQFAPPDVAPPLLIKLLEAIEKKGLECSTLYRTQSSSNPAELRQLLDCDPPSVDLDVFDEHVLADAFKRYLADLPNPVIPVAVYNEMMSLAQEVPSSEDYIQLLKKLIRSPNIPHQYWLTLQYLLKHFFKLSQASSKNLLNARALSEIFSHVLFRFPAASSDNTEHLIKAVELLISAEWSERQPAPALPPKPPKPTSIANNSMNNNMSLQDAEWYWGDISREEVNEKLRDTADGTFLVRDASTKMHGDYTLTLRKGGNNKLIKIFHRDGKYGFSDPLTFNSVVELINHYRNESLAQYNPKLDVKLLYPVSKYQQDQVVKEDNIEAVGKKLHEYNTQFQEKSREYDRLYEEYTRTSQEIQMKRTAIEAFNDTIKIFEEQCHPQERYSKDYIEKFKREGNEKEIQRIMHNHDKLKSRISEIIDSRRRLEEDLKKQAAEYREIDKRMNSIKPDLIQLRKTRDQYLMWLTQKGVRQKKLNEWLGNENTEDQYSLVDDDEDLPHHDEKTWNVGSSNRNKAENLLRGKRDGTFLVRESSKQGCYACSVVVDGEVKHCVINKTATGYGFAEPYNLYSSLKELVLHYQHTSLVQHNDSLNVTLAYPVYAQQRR

Experiments:
[1] = biological target: human PI3Kbeta p110 catalytic subunit (Rat-1 pBABEpuro Myr-HA-hp110 beta) (Homo sapiens, UniProt P42338); assay: Cellular assay PI3Kbeta (p-Akt(S473) SureFire, Rat-1_PI3beta cells); type: cell-based; details: read-out: Rat1-PI3Kb/ IC50, 1 h compound treatment
[2] = biological target: human PI3Kalpha p110 catalytic subunit (Rat-1 pBABEpuro Myr-HA-hp110alpha) (Homo sapiens, UniProt P42336); assay: Cellular assay PI3Kalpha (p-Akt(S473) SureFire, Rat-1_PI3Kalpha cells); type: cell-based; details: 1 h compound treatment
mTOR = mTOR (Mus musculus, UniProt Q9JLN9); assay: Cellular assay mTOR (phospho-T389 S6K1 SureFire in TSC1-/- MEF cells); details: read-out: mTOR S6K(T389)_TSC1ko/ IC50
A2058 cells = assay: Cell cycle G2/M arrest Cytospin assay to detect tubulin binding (off-target); details: 5 μM test item, 24 hours
[3] = biological target: human PI3Kdelta p110 catalytic subunit (Rat-1 pBABEpuro Myr-HA-hp110 delta) (Homo sapiens, UniProt O00329); assay: Cellular assay PI3Kdelta (p-Akt(S473) SureFire, Rat-1_PI3Kdelta cells); type: cell-based; details: read-out: Rat1-PI3Kd/ IC50, 1 h compound treatment
PI3Kgamma = PI3Kgamma (Homo sapiens, UniProt P48736); assay: Biochemical PI3Kgamma (TR-FRET Adapta Universal Kinase Assay); details: read-out: PIK3g/ IC50, mean of n measurements

Row | Structure (SMILES) | IC50 [1] [µM] | Rat1-PI3Ka/ IC50 [2] [umol I-1] | IC50 (mTOR) [µM] | Score (condensed DNA, G2/M arrest; off-target tubulin binding) (A2058 cells) | IC50 [3] [µM] | IC50 (PI3Kgamma) [µM]
1 | Nc1cc(C(F)(F)F)c(-c2cc(N3CCCCC3=O)nc(N3CCOCC3)n2)cn1 | – | 0.460 | 2.12 | 0 | 1.03 | –
2 | Nc1cc(C(F)(F)F)c(-c2cc(N3CCN(c4ccccc4)C3=O)nc(N3CCOCC3)n2)cn1 | – | 0.669 | > 2.27 | 0 | 1.29 | –
3 | Nc1cc(C(F)(F)F)c(-c2cc(N3CCOC(c4ccccc4)C3)nc(N3CCOCC3)n2)cn1 (stereo not shown) | 4.04 | 1.247 | > 2.27 | 0 | – | > 9.1

The next lines start with the values.

Row | IC50 [1] [µM] | Rat1-PI3Ka/ IC50 [2] [umol I-1] | IC50 (mTOR) [µM] | Score (condensed DNA, G2/M arrest; off-target tubulin binding) (A2058 cells) | IC50 [3] [µM] | IC50 (PI3Kgamma) [µM] | Structure (SMILES)
4 | 8.22 | 1.770 | > 2.27 | 0 | – | – | Nc1cc(C(F)(F)F)c(-c2cc(N3CCS(=O)(=O)CC3)nc(N3CCOCC3)n2)cn1
5 | – | – | > 2.27 | 0 | – | – | Nc1cc(C(F)(F)F)c(-c2cc(N3CCC(=O)CC3)nc(N3CCOCC3)n2)cn1
6 | – | – | 1 | 3 | 0.238 | – | Nc1ncc(-c2cc(N3CCOCC3)nc(N3CCOCC3)n2)c(C(F)(F)F)n1
